Each structure is given as a SMILES string.

Chains of the proteins cited; added tags and fusions are not shown.
UniProt P35462, whole entry: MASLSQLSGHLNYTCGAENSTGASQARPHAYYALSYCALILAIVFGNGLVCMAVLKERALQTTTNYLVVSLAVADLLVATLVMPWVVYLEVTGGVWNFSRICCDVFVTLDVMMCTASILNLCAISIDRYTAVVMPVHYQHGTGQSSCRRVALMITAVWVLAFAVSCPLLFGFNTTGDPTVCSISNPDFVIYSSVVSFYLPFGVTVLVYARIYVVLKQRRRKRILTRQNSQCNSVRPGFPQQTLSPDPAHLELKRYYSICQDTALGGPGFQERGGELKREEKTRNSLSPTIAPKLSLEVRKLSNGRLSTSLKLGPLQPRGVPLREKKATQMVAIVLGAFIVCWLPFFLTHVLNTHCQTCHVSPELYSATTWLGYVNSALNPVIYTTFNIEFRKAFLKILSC

Drawing on US8829029B2, “Dual modulators of 5HT2A and D3 receptors” (Hoffmann-La Roche Inc., priority 2008, dated 2014), this text covers Ki for five compounds.

The target in the assay is human D3 dopamine receptor (Homo sapiens (Human), UniProt P35462). Briefly: Radioligand binding ([3H]-spiperone) to cloned human D3 receptor expressed in HEK-293 EBNA cells. To be noted: membranes of transfected HEK-293 EBNA cells, 0.5 nM [3H]-spiperone, 1 h at RT. As to the method: The ability of the compounds to bind to the 5-HT2A, D3 and D2 receptors was determined using radioligand binding to cloned receptors selectively expressed in HEK-293 EBNA cells.
HEK-293 EBNA cells were transiently transfected with expression plasmids encoding for the human D2 or D3 dopamine- or for the human 5-HT2A serotonin receptor, respectively. The cells were harvested 48 h post-transfection, washed three times with cold PBS and stored at −80° C. prior to use. The pellet was suspended in cold 50 mM Tris-HCl buffer containing 10 mM EDTA (pH 7.4) and homogenized with a Polytron (Kinematica AG, Basel, Switzerland) for 20-30 sec at 12,000 rpm. After centrifugation at 48,000×g for 30 min at 4° C., the pellet was resuspended in cold 10 mM Tris-HCl buffer containing 0.1 mM EDTA (pH 7.4), homogenized, and centrifuged as above. This pellet was further resuspended in a smaller volume of ice cold 10 mM Tris-HCl buffer containing 0.1 mM EDTA (pH 7.4) and homogenized with a Polytron for 20-30 sec at 12,000 rpm. The protein content of this homogenate was determined with the Bio-Rad (Bradford) Protein Assay (Biorad Laboratories GmbH, München, Germany) according to the instructions of the manufacturer using gamma globulin as the standard. This homogenate was stored at −80° C. in aliquots and thawed immediately prior to use.
Aliquots of membrane preparations were thawed at RT, resuspended in assay buffer (D2, D3: 50 mM Tris-HCl, 120 mM NaCl, 5 mM MgCl2, 1 mM EDTA, 5 mM KCl, 1.5 mM CaCl2, pH=7.4; 5-HT2A: 50 mM Tris-HCl, 10 mM MgCl2, 1 mM EGTA, pH=7.4), homogenized with a Polytron for 20-30 sec at 12,000 rpm and adjusted to a final concentration of approximately 7.5 μg protein/well (D2, D3) and 15 μg protein/well (5-HT2A), respectively.
The binding affinity (Ki) of the compounds was determined using radioligand binding. Membranes were incubated in a total volume of 200 μl with a fixed concentration of radioligand (final concentration approximately 0.7 nM [^3H]-spiperone for D2, 0.5 nM [^3H]-spiperone for D3, and 1.1 nM [^3H]-ketanserin for 5-HT2A) and ten concentrations of test compound in ranging between 10 μM-0.1 nM for 1 h at RT. At the end of the incubation, the reaction mixtures were filtered on to unifilter 96-well white microplates with bonded GF/C filters (Packard BioScience, Zürich, Switzerland; preincubated for 1 h in 0.1% polyethylenimine (PEI) in assay buffer) with a Filtermate 196 harvester (Packard BioScience) and washed 3 times with cold assay buffer. The nonspecific binding was determined with equally composed reaction mixtures in the presence of 10 μM unlabelled spiperone. Per well 45 μl of Microscint 40 (Perkin Elmer, Schwerzenbach, Switzerland) was added, plates for sealed, shaken for 20 min and counted for 3 min on a Topcount Microplate Scintillation Counter (Canberra Packard SA, Zürich, Switzerland) with quenching correction.
The CPM value for each duplicate of a concentration of competing compound was averaged (y1), then the % specific binding was calculated according to the equation (((y1−non-specific)/(total binding−non-specific))×100). Graphs were plotted with the % specific binding using XLfit, a curve fitting program that iteratively plots the data using Levenburg Marquardt algorithm. […] The affinity constant (Ki) was calculated using the Cheng-Prusoff equation Ki=(IC50/1+([L]/Kd), where [L] is the concentration of radioligand and Kd is the dissociation constant of the radioligand at the receptor as determined by the saturation isotherm.
Turning to `O=C(N[C@H]1CC[C@H](CCN2CCC(c3noc4ccc(F)cc34)CC2)CC1)c1ccc2c(c1)OCO2` [Example 30, Benzo[1,3]dioxole-5-carboxylic acid trans (4-{2-[4-(5-fluoro-benzo[d]isoxazol-3-yl)-piperidin-1-yl]-ethyl}-cyclohexyl)-amide], the Ki worked out at 3.86 nM.
Next, `O=C(CC1CCCCO1)N[C@H]1CC[C@H](CCN2CCC(c3noc4cc(Cl)ccc34)CC2)CC1` (stereo partly drawn) [Example 34, N-trans (4-{2-[4-(6-Chloro-benzo[d]isoxazol-3-yl)-piperidin-1-yl]-ethyl}-cyclohexyl)-2-(tetrahydro-pyran-2-yl)-acetamide]: 10.7 nM.
As for `O=C(C[C@@H]1CCCCO1)N[C@H]1CC[C@H](CCN2CCC(c3noc4cc(Cl)ccc34)CC2)CC1` [Example 34A, N-trans (4-{2-[4-(6-Chloro-benzo[d]isoxazol-3-yl)-piperidin-1-yl]-ethyl}-cyclohexyl)-2-(R)-tetrahydro-pyran-2-yl-acetamide], the Ki was 10.7 nM.
As for `O=C(N[C@H]1CC[C@H](CCN2CCC(c3noc4cc(F)ccc34)CC2)CC1)c1ccnc(N2CCOCC2)c1` [Example 12, N-trans (4-{2-[4-(6-Fluoro-benzo[d]isoxazol-3-yl)-piperidin-1-yl]-ethyl}-cyclohexyl)-2-morpholin-4-yl-isonicotinamide], the Ki was determined as 5.75 nM.
For the compound `O=C(N[C@H]1CC[C@H](CCN2CCC(c3noc4cc(F)ccc34)CC2)CC1)c1ccc(N2CCOCC2)cc1` [Example 4, N-trans-(4-{2-[4-(6-Fluoro-benzo[d]isoxazol-3-yl)-piperidin-1-yl]-ethyl}-cyclohexyl)-4-morpholin-4-yl-benzamide], the Ki was 28.2 nM.
